Measurements: US20240246911A1, “NOVEL T[…] METHODS OF TREATING MOOD DISORDERS” (GILGAMESH PHARMACEUTICALS INC., priority 2021, published 2024)

Biological target: 5-HT1A receptor (Homo sapiens (Human), UniProt P08908)
Assay: FLIPR Ca2+ flux functional assay, agonist activity at 5-HT1A
Assay type: cell-based
Conditions: CHO stably transfected cells
Method: Functional Assays at 5-HT2A, 5-HT2B, and 5-HT1A Receptors. Agonist activity at 5-HT2A, 5-HT2B, and 5-HTIA receptors was determined using a FLIPR Ca^2− flux assay at WuXi AppTec (Hong Kong) Limited according to their standard protocols. Briefly, stably transfected cells expressing the receptor of interest (HEK293 for 5-HT2A and 5-HT2B; CHO cells for 5-HT1A) were grown and plated in a 384-well plate and incubated at 37° C. and 5% CO2 overnight. A solution of 250 mM probenecid in 1 mL FLIPR assay buffer was prepared fresh. This was combined with a fluorescent dye (Fluo-4 Direct™) to make a final assay concentration of 2.5 mM. Compounds were diluted 1:3.16 for 10 points and 750 nL was added to a 384-well compound plate using ECHO along with 30 μL of assay buffer. The fluorescent dye was then added to the assay plate along with assay buffer to a final volume of 40 μL. The cell plate was incubated for 50 min at 37° C.and 5% CO2 and placed into the FLIPR Tetra along with the compound plate. 10 μL of references and compounds were then transferred from the compound plate into the cell plate and the fluorescent signal was read.

COc1ccc2[nH]cc(CCN(C)C)c2c1 [Compound 5-MeO-DMT, 5-methoxy-N,N-dimethyltryptamine] showed an EC50 of 279 nM.
